Values of other authors, collected in US20100112059A1, “Methods, Systems and Devices for Administration of Chlorine Dioxide” (priority 2008, published 2010).

Conditions: chlorite ion/chlorous acid equilibrium; printed as pH 1.8

For chlorous acid, the pKa is listed as 1.8.
